Measurements reported in patent US20250222082A1, “PROTEIN AND PEPTIDE VACCINES TARGETING METHANOGENS” (Arkea Bio Corp., priority 2024, published 2025).

Assay: Adsorbent study: reduction of 3NOP concentration in solution (HPLC 230 nm)
Details: 0.2 g of adsorbent in 10 mL of 1% 3NOP/H2O; 24 h; control 8.258 mM

Iron Phosphate
3NOP concentration remaining in solution: 7.503 mM
